Literature values as cited in US9669025B2 (INFLAMMATORY RESPONSE RESEARCH, INC., priority 2013, dated 2017).
Entries after “also recorded” stand apart in the source; their conditions may differ.

Key:
[1] = relative to the pure isomer; cited from earlier work
[2] = levocetirizine; cited from earlier work

SMILES | sedation profile relative to levocetirizine [1] | time to steady state level (in words) [2]
O=C(O)COCCN1CCN(C(c2ccccc2)c2ccc(Cl)cc2)CC1 (centres unmarked) [cetirizine] | twice | 
O=C(O)COCCN1CCN([C@H](c2ccccc2)c2ccc(Cl)cc2)CC1 [levocetirizine] |  | less than two days; also recorded: within two days
